Results: PMC12393591, “Targeting Plasminogen Activator Inhibitor-1 with a Novel Small Molecule Inhibitor Attenuates Lung Fibrosis” (Research Square, 2025)
Read-outs that look alike come from different tables or passages of the source.

Chains of the proteins cited; added tags and fusions are not shown. Residues count along the entry.
UniProt P05121, 24-402: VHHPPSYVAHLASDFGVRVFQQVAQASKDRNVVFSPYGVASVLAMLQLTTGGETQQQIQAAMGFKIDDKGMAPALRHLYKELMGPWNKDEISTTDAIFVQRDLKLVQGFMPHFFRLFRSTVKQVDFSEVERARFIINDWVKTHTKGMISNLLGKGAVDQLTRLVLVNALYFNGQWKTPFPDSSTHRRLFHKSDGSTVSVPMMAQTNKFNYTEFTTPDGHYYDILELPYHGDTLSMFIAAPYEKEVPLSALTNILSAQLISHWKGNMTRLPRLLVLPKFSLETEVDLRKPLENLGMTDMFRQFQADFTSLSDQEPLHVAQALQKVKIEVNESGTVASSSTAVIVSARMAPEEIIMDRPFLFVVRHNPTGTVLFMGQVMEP

Biological target: recombinant active human PAI-1 (Homo sapiens, UniProt P05121)
Test: PAI-1 inhibitory activity against uPA (fluorogenic uPA substrate)
Type: biochemical
Details: read-out: IC50 for inhibiting the activity of PAI-1 against uPA
Method: The activity of the small molecule PAI-1 inhibitors against PAI-1 was analyzed as previously described. Briefly, recombinant active human PAI-1 was incubated at 2 nM for 15 min at 23°C with increasing concentrations of each compound in assay buffer (40 mM HEPES, pH 7.4, 100 mM NaCl, 0.005% Tween 20, 0.1% DMSO), or in assay buffer contain 50 nM vitronectin or 10% human PAI-1-depleted plasma followed by the addition of uPA (Innovative Research), and further incubated for 30 min at 23°C. At each drug concentration, parallel control reactions without PAI-1 were assembled. Residual enzymatic activity was determined by addition of an equal volume of 100 μM Z-Gly-Gly-Arg-AMC (Calbiochem) fluorogenic uPA substrate, and the rate of AMC release monitored at 23°C (excitation 370 nm and emission 440 nm). The percent change in PAI-1 activity was determined according to Eq. 1: [(Ei – Pi) / Ei] / [(E0 - P0) / E0], where Ei is the enzyme activity at drug concentration i; Pi is the enzyme activity in the presence of PAI-1 at drug concentration i; E0 is the enzyme activity in the absence of drug; and P0 is the enzyme activity in the presence of PAI-1 but in the absence of drug. Data were then plotted as the residual PAI-1 activity as a percentage of the control PAI-1 activity vs. compound concentration and from these curves the IC50 of each compound was calculated.

## O=C(O)C(=O)c1cn(Cc2ccccc2)c2ccc(-c3ccc(OC(F)(F)F)cc3)cc12 [Tiplaxtinin]
Buffer containing 10% human PAI-1-depleted plasma
  IC50: 2000 µM
Buffer with 50 nM purified human vitronectin
  IC50: 583 µM
In buffer alone
  IC50: 22 µM
